Results: patent US4442090A, “Absorption-promoting compounds, compositions thereof with pharmaceuticals and/or bases for rectal administration and method of use” (Kyoto Yakuhin Kogyo Kabushiki Kaisha, priority 1980, dated 1984)

Assays:
[1] = Urinary excretions of aminoglycoside antibiotics after rectal suppository (rabbit); settings: Kanamycin sulfate 125 mg (potency), Compound (I) 5%, Witepsol H-15
[2] = Urinary excretions of β-lactam antibiotics after rectal suppository (rabbit); type: in vivo; settings: Cefotaxime 125 mg (potency), Compound (I) 5%, Witepsol H-15
Description: The absorption into the circulation through the rectum of the rectal suppositories thus prepared was determined by measuring urinary excretion of the pharmacologically-active substance.
Thus, Sarcina lutea and Bacillus subtilis were used as assay organisms for penicillins and cephalosporins, respectively, and the assays were performed by the paper disk method (cultivation at 37° C. for from 15 to 20 hours).

Compound | Urinary excretions (%) 2-4 hr. [1] [%] | Urinary excretions (%) 0-2 hr. [2] [%] | Urinary excretions (%) 2-4 hr. [2] [%] | Urinary excretions (%) 4-6 hr. [2] [%] | Urinary excretions (%) Total (0-6 hr.) [2] [%]
CCCCOc1ccc(C(=O)O)cc1 [Compound 3-Na, p-Butoxybenzoic acid] | 12.2 |  |  |  | 
Polyoxyethylene stearyl ether carboxylic acid (with 6 moles of ethylene oxide) [Compound 9-Na] |  | 30.9 | 12.2 | 1.5 | 44.6
